# Measurements: patent publication US20190134143A1
# Target: PDZ1/2 domain
# Test: SPR, Biacore 3000; PDZ1/2 amine-coupled to the chip, peptide as analyte, 1:1 binding model
binder,measurement,value
YGRKKRRQRRRYEKLLDTEI (modifications not checked) [chimeric peptide P5],Kd,29.9 nM
